Measured values: patent US20040161391A1, “Ascorbic acid compounds as bleaching agents” (L'OREAL, priority 2002, published 2004)

Assay: Cytotoxicity by estimating the incorporation of leucine
Assay type: cell-based
Experimental: The following were determined for each test compound:
the cytotoxicity, by estimating the incorporation of leucine, […]

methyl 2,3-bis-acetate of ascorbic acid [Compound T1]
Cytotoxicity: No
